# According to patent US20080138836A1, “KINASE AND UBIQUINATION ASSAYS” (INVITROGEN CORPORATION, priority 2006, published 2008):
# Biological target: T1, Epidermal Growth Factor Receptor (EGFR) Tyrosine Kinase (Homo sapiens, UniProt P00533)
# T1 construct: purchased PanVera, Madison Wis; P2628
# Test: EGFR kinase multiplex FP/TR-RET assay (LOPAC screen and follow-up)
# Assay type: biochemical
# Settings: 10 μM library compound
smiles,measurement,value
COc1cc2ncnc(Nc3cccc(Cl)c3)c2cc1OC [Tyrophostin AG 1478],inhibition in library screen,strong inhibition
